Assay results reported in publication PMC10454678, “Synthesis of hydroxy benzoin/benzil analogs and investigation of their antioxidant, antimicrobial, enzyme inhibition, and cytotoxic activities” (Turkish Journal of Chemistry, 2021).

The chains behind the UniProt entries cited, without tags or fusion partners. Residues count along the entry.
UniProt P22303, 32-614, species assumed: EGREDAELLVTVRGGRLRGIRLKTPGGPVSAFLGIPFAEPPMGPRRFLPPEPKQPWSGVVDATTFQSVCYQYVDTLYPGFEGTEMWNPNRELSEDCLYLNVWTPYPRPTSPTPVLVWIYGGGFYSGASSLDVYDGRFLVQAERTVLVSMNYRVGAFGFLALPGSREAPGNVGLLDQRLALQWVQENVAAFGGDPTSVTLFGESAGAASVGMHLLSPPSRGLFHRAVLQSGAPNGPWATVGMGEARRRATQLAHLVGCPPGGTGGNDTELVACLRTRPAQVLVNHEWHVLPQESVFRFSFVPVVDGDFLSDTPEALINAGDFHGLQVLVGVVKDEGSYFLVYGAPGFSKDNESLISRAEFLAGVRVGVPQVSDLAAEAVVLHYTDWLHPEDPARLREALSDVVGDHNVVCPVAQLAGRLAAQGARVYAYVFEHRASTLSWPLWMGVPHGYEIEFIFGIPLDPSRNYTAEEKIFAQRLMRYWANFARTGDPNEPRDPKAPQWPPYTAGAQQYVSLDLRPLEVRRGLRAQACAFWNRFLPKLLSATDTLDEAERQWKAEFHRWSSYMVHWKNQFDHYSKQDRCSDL
UniProt P06276, 29-602: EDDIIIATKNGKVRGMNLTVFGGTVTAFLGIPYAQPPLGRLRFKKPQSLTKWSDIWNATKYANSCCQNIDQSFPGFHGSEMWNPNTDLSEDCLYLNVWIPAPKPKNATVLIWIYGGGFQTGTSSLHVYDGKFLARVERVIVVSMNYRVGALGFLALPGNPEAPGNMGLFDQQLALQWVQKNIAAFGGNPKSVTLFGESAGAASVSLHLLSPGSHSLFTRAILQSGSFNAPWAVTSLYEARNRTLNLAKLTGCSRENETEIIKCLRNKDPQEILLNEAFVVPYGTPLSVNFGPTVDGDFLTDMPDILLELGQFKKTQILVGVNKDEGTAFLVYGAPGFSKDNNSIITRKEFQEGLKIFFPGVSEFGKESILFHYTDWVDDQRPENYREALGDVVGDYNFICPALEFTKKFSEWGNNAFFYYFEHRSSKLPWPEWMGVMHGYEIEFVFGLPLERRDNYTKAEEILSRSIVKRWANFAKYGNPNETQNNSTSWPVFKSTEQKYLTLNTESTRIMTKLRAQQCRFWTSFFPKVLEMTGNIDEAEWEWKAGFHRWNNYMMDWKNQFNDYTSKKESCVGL

How the values were obtained:
acetylcholinesterase = acetylcholinesterase (Homo sapiens, UniProt P22303); assay type: biochemical; settings: Tris-HCl pH 8.0, 25 °C, 405 nm
butyrylcholinesterase = butyrylcholinesterase (Homo sapiens, UniProt P06276); assay type: biochemical; settings: Tris-HCl pH 8.0, 25 °C, 405 nm

In the case of “2-Hydroxy-1-(3-O- β -D-glucopyranosylphenyl)-2-(3-hydroxyphenyl)-ethanone; 2-Hydroxy-1-(3-hydroxyphenyl)-2-(3-O- β -D-glucopyranosylphenyl)ethanone [18a+b]”, the “AChE IC50” value (acetylcholinesterase) is reported as greater than 1000 µg/mL and the “BChE IC50” value (butyrylcholinesterase) is reported as 462.26 µg/mL.
